Data on two compounds can be found in article PMC11280027, “Conquering the beyond Rule of Five Space with an Optimized High-Throughput Caco-2 Assay to Close Gaps in Absorption Prediction” (Pharmaceutics, 2024).

One data set is described as follows: in vitro. The settings on record: human, Caco-2, pH 7.4.
The conditions of data set [1]: human fraction absorbed; rounded to two significant figures; ref [17]; cited from earlier work.

Structures are written as SMILES.

Take `CC(C)CN(C[C@@H](O)[C@H](Cc1ccccc1)NC(=O)O[C@H]1CCOC1)S(=O)(=O)c1ccc(N)cc1` [Amprenavir]: the efflux ratio in the data set “in vitro” is over 2.

Regarding `Cc1nc2n(c(=O)c1CCN1CCC(c3noc4cc(F)ccc34)CC1)CCCC2` [Risperidone], the “Observed Human fa” value in data set [1] is listed as 0.85.

The efflux ratio is a quotient of directional permeabilities that is used to spot active efflux.
